Biological target: human GPR120 (Homo sapiens (Human), UniProt Q5NUL3)
Assay: GPR120 pERK AlphaScreen SureFire Assay (human GPR120 pERK assay)
Details: CHO cells stably transfected with short form of human GPR120
From the text: GPR120 activity was monitored by measuring phosphorylation of ERK (pERK), since G protein receptors are known to activate the ERK signaling cascade either directly and/or through recruitment of arrestin that serves as a scaffold for downstream signaling events.
GPR120 pERK AlphaScreen SureFire Assay
The human and mouse GPR120-mediated intracellular phosphorylated ERK assays were established using CHOA12 cells stably transfected with the short form of human or mouse GPR120 receptor. Cells were cultured in growth medium consisting of F-12 media (Invitrogen Cat. #11765) with 5% Charcoal/Dextran FBS (Invitrogen Cat. #12676-029), 500 μg/mL GENETICIN® (Life Technologies Cat. #10131-027) and 250 μg/mL Zeocin (Invitrogen Cat. #R250-01). Cells were cryo-preserved at a concentration of 2×10^7 cells/mL, in 90% Charcoal/Dextran FBS and 10% DMSO, and frozen in liquid nitrogen at a low passage number.
For the pERK assay, 2×10^7 cells/mL cryopreserved human and mouse cells were thawed rapidly in a 37° C. water bath and added to a T-225 flask containing 50 mL growth medium. The flasks were placed in a tissue culture incubator overnight (37° C., 5% CO2). The next day, cells were harvested with trypsin (Gibco Cat. #25300-054), resuspended in serum-containing growth medium and counted using a Cellometer and volume adjusted to a concentration of 0.6×10^6 cells/mL. Cells were plated into 384-well clear bottom tissue culture plates (BD Cat. #353962) at 50 μL/well, for a density of 30,000 cells/well using a MULTIDROP® and incubated for 16-18 hours (overnight) at 37° C. with 5% CO2. The next day, cells were serum starved in 30 μL of F-12 media without any serum or antibiotics for 2 hours at 37° C.
Test compounds were 3-fold, 11-point serially diluted in DMSO in a REMP assay plate (Matrix Cat. #4307) by Tecan and 5 μL was transferred into an ECHO source plate (Labcyte Cat. #LC-0200). Cells were then stimulated with 50 nL of compound dilutions using ECHO liquid handler for 7 min at 37° C. Compounds ranged from final assay concentrations of 33.33 μM to 0.56 nM.
The media was then dumped and cells lysed with 20 μL of 1× Lysis buffer from the AlphaScreen SureFire Phospho-ERK 1/2 Kit (Perkin Elmer Cat. #6760617M). The lysis buffer was diluted 5-fold with water before use. The plate was agitated on a shaker for 10 min after which 2 μL was transferred into a 384-well white proxiplate (Perkin Elmer Cat. #6008289). The SureFire assay reagent mix was prepared by mixing 60 parts Reaction Buffer, 10 parts Activation Buffer, 1 part Donor Beads, 1 part Acceptor Beads (Perkin Elmer Cat. #TGRES10K). 3.5 μL/well of this reagent mix was manually added to the proxiplate with a multichannel pipettor. Plates were spun down at 1000 rpm for 2 min, followed by light-protected incubation at room temperature for 2 hours. The plates were read on the Alpha-technology compatible Envision multilabel plate reader using AlphaScreen protocol according to manufacturer's specifications. The agonist effect of compounds was expressed as 100×(average sample-average blank)/(average total-average blank) where sample is the luminescence activity in the presence of test compound, blank is equal to the luminescence activity in the presence of DMSO control and the total is signal induced by 50 μM linolenic acid as reference compound. […] After correcting for background, EC50 values were determined. […]

Protein sequences, listed by entry. Tags and fused reporters are not part of them.
UniProt Q5NUL3, whole entry: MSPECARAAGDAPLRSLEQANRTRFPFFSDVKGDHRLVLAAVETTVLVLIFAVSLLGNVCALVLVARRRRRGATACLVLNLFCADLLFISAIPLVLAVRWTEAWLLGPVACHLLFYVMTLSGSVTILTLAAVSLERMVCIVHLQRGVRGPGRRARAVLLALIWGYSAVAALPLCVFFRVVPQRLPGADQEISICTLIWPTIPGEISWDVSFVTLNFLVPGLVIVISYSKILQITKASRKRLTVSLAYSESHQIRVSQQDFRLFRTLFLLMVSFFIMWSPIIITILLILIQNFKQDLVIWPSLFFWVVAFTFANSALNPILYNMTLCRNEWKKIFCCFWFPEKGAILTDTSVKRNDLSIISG

CCOc1ccc(F)c(-c2ccc(CC[C@@H]3C[C@H]3C(=O)O)cc2)c1 (relative stereo)
EC50: 1.25 µM

COc1ccc(F)c(-c2ccc(OC[C@@H]3C[C@H]3C(=O)O)cc2)c1 (relative stereo)
EC50: 2.28 µM

O=C(O)[C@@H]1C[C@H]1COc1ccc(-c2cc(Oc3ccccc3)ccc2F)cc1 (relative stereo)
EC50: 0.45 µM

O=C(O)C1CC1COc1ccc(-c2cc(Oc3ccccc3)ccc2F)cc1 (single isomer, unassigned) [57]
EC50: 0.12 µM

O=C(O)C1CC1COc1ccc(-c2cc(Oc3ccccc3)ccc2F)cc1 (single isomer, unassigned) [58]
EC50: 0.11 µM

— patent publication US9938222B2 (BRISTOL-MYERS SQUIBB COMPANY, priority 2014, dated 2018)
